Assay: Selectivity ratio of IC50 for integrin alphaVbeta5 receptor to IC50 for integrin alphaVbeta3 receptor

Ratio IC50 | Compound
20 | CC(=O)O[C@H]1C(=O)[C@@]2(C)[C@H]([C@H](OC(=O)c3ccccc3)[C@]3(O)C[C@H](OC(=O)[C@H](OC(=O)CCC(=O)NCc4ccc(CN5C(=O)[C@H]6CNC(=O)[C@H](CC(=O)O)NC(=O)CNC(=O)[C@H](CCCNC(=N)N)NC(=O)C[C@H]5C(=O)N6)cc4)[C@@H](NC(=O)c4ccccc4)c4ccccc4)C(C)=C1C3(C)C)[C@]1(OC(C)=O)CO[C@@H]1C[C@@H]2O
20 | N=C(N)NCCC[C@@H]1NC(=O)C[C@H]2NC(=O)[C@H](CNC(=O)[C@H](CC(=O)O)NC(=O)CNC1=O)N(Cc1ccc(CN)cc1)C2=O.O=C(O)C(F)(F)F
20 | CC(=O)O[C@H]1C(=O)[C@@]2(C)[C@H]([C@H](OC(=O)c3ccccc3)[C@]3(O)C[C@H](OC(=O)[C@H](OC(=O)CCC(=O)NCc4ccc(CN5C(=O)[C@@H]6CNC(=O)[C@H](CC(=O)O)NC(=O)CNC(=O)[C@H](CCCNC(=N)N)NC(=O)C[C@@H]5C(=O)N6)cc4)[C@@H](NC(=O)c4ccccc4)c4ccccc4)C(C)=C1C3(C)C)[C@]1(OC(C)=O)CO[C@@H]1C[C@@H]2O

Source: ChEMBL document CHEMBL2176897, “Synthesis and biological evaluation (in vitro and in vivo) of cyclic arginine-glycine-aspartate (RGD) peptidomimetic-paclitaxel conjugates targeting integrin αVβ3” (J Med Chem, 2012)
